The values that follow come from patent publication US11339120B2, “Phenyl derivatives as cannabinoid receptor 2 agonists” (priority 2015, dated 2022).

Chains of the proteins cited; added tags and fusions are not shown.
UniProt P34972, whole entry: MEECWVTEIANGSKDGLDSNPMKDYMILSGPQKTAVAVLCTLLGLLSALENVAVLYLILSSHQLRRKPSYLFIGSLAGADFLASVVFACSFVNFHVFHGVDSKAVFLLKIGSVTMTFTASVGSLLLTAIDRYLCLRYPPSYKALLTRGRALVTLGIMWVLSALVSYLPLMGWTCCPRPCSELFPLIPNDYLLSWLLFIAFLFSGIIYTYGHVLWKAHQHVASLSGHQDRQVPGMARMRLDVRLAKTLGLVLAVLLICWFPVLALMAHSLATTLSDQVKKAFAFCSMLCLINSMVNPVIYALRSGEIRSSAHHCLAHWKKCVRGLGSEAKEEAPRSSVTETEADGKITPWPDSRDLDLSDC
UniProt P21554, whole entry: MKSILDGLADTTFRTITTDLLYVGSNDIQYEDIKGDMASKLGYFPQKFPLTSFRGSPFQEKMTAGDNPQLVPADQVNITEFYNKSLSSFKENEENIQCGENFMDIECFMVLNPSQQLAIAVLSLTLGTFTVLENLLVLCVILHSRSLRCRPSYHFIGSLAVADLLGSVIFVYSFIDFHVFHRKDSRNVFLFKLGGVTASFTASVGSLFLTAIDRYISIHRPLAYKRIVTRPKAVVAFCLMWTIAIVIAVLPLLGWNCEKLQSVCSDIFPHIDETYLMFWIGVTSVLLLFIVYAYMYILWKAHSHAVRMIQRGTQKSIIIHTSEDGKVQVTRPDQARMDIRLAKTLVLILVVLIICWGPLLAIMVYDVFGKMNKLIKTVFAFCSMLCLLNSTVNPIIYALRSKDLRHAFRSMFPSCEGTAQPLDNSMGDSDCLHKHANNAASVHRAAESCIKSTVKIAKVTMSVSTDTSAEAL

One experiment concerns the target human CB2 receptors (Homo sapiens, UniProt P34972). As to the kind of experiment: functional cAMP assay, CHO cells expressing human CB2. Format: cell-based. The settings on record: read-out: Human CB2 EC50. The procedure: (§1) CHO cells expressing human CB1 or CB2 receptors are seeded 17-24 hours prior to the experiment 50.000 cells per well in a black 96 well plate with flat clear bottom (Corning Costar #3904) in DMEM (Invitrogen No. 31331), 1×HT supplement, with 10% fetal calf serum and incubated at 5% CO2 and 37° C. in a humidified incubator. The growth medium was exchanged with Krebs Ringer Bicarbonate buffer with 1 mM IBMX and incubated at 30° C. for 30 min. Compounds were added to a final assay volume of 100 μl and incubated for 30 min at 30° C. […] The time-resolved energy transfer is measured by a TRF reader (Evotec Technologies GmbH), equipped with a ND:YAG laser as excitation source. The plate is measured twice with the excitation at 355 nm and at the emission with a delay of 100 ns and a gate of 100 ns, total exposure time 10 s at 730 (bandwidth 30 nm) or 645 nm (bandwidth 75 nm), respectively. The FRET signal is calculated as follows: FRET=T730-Alexa730-P(T645-B645) with P=Ru730-B730/Ru645-B645, where T730 is the test well measured at 730 nM, T645 is the test well measured at 645 nm, B730 and B645 are the buffer controls at 730 nm and 645 nm, respectively. cAMP content is determined from the function of a standard curve spanning from 10 μM to 0.13 nM cAMP.
(§2) EC50 values were determined using Activity Base analysis (ID Business Solution, Limited). […]
Background: Changes in cAMP serve as a functional read-out for many G protein-coupled receptors.

For another experiment, the target named is human CB1 receptors (Homo sapiens, UniProt P21554). As to the kind of experiment: functional cAMP assay, CHO cells expressing human CB1. Type of experiment: cell-based. As to conditions: read-out: Human CB1 EC50. The procedure: as §1, §2

pEC50: −log10 of the molar value. Bounds are passed on as bounds.

Turning to `Cc1nc(C(NC(=O)c2ccc(C3CC3)c(OCCF)c2)C2(C)COC2)no1` (centres unmarked), the pEC50 (in general, −log10 of the EC50, conventionally taken in molar units) is 6.30 on human CB2 receptors and less than 5.00 at human CB1 receptors.
